Literature values as cited in US8377903B2, “Cladribine regimen for treating multiple sclerosis” (Merck Serono SA, priority 2004, dated 2013).

System: Relapsing-Remitting Multiple Sclerosis (RRMS)
Settings: subcutaneously three times per week; cited from earlier work

B1: interferon beta-1a: Rebif® is interferon (IFN)-beta 1a, produced from mammalian cell lines (protein, UniProt P01574 22-187, looked up)
Interferon beta: MSYNLLGFLQRSSNFQCQKLLWQLNGRLEYCLKDRMNFDIPEEIKQLQQFQKEDAALTIYEMLQNIFAIFRQDSSSTGWNETIVENLLANVYHQINHLKTVLEEKLEKEDFTRGKLMSSLHLKRYYGRILHYLKAKEYSHCAWTIVRVEILRNFYFINRLTGYLRN
efficacy in RRMS: efficacious
